The target in assay [1] is T1, Cholinesterase (Homo sapiens, UniProt P06276). As to the kind of experiment: Inhibition of human recombinant BChE.
The target in assay [2] is T1, Cholinesterase. The assay is described as follows: Inhibition of human recombinant AChE assessed as dissociation constant for enzyme-inhibitor-substrate complex by Lineweaver-Burk plot.

Chains of the proteins cited; added tags and fusions are not shown. Residues count along the entry.
UniProt P06276, 29-602 limits assumed: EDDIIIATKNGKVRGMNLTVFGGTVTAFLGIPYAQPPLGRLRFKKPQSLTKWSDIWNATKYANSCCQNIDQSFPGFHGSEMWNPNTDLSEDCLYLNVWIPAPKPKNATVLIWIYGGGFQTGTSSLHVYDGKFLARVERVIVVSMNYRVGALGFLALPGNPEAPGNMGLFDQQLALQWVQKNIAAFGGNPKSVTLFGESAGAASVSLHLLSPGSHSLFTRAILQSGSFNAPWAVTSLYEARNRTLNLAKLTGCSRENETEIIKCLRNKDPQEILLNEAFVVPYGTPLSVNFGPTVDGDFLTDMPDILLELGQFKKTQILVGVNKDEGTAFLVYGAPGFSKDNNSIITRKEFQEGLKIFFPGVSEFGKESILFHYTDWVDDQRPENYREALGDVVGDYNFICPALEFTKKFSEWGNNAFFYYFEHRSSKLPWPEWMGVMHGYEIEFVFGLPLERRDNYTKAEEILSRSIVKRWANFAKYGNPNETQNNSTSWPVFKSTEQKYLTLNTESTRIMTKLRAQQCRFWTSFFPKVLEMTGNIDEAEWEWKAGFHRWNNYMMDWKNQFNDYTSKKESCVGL

The text below walks through data of BindingDB's records for 21144749.

In the case of `CC(C)(C)c1cc[n+](CCOCC[n+]2ccc(C(C)(C)C)cc2)cc1`, at Cholinesterase [1], the IC50 turned out to be 241 µM. `CCN(CC)C(C)CN1c2ccccc2Sc2ccccc21` (centres undefined): at Cholinesterase [2], the Ki was found to be 12100 µM. `O=NCc1cc[n+](COC[n+]2ccc(CN=O)cc2)cc1`: at Cholinesterase [1], the IC50 was determined as 1910 µM. As for `CC(C)(C)c1cc[n+](/C=C2\C=CC3=CC/C(=C\[n+]4ccc(C(C)(C)C)cc4)C=C3C2)cc1`, at Cholinesterase [2], the Ki worked out at 0.1 µM.

One may read the IC50 as the concentration at which inhibition is half-maximal. For orientation: Ki means the equilibrium dissociation constant of an inhibitor or competing ligand from its target.
